The values below come from ChEMBL document CHEMBL1765051, “Crystal structure of tert-butyldimethylsilyl-spiroaminooxathioledioxide-thymine (TSAO-T) in complex with HIV-1 reverse transcriptase (RT) redefines the elastic limits of the non-nucleoside inhibitor-binding pocket” (J Med Chem, 2011).

The target of this experiment is Human immunodeficiency virus type 1 reverse transcriptase (Human immunodeficiency virus 1, UniProt Q72547). The experiment can be described thus: Inhibition of wild type HIV-1 reverse transcriptase-mediated polymerization reaction after 30 mins. In outline:
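Wild-type RT added to start the reaction with poly(rC)/oligo(dG) (0.1 mM) and 2.8 μM [3H]dGTP (2 μCi/assay). Buffer: 50 mM Tris-HCl pH 7.8, 5 mM DTT, 300 mM glutathione, 0.5 mM EDTA, 150 mM KCl, 5 mM MgCl2, BSA, 0.06% Triton X-100. Incubated 30 min at 37°C, then TCA-precipitated. Acid-insoluble radioactivity counted. IC50 is 50% polymerization inhibition, mean ± SD of ≥2 independent experiments.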

Molecules are shown by their SMILES.

A word on the IC50: it is the concentration at which inhibition is half-maximal. Compound `Cc1cn([C@@H]2O[C@H](CO[Si](C)(C)C(C)(C)C)[C@@]3(OS(=O)(=O)C=C3N)[C@H]2O[Si](C)(C)C(C)(C)C)c(=O)[nH]c1=O` yielded an IC50 of 1200 nM. That is a single-digit micromolar value.
